For one data set, the system named is Heliothis virescens. As to the kind of experiment: Sprayed cotton leaf test, mortality of 1st instar larvae after 3 days. The method, then: (§1) For Heliothis and Spodoptera testing cotton leaves were sprayed in a Berkhard Potter Tower, left to dry for 1 hour and then placed on the top of pots containing twenty 1st instar Heliothis virescens/Spodoptera littoralis larvae. These were stored in a test holding room at 25° C. for 3 days and the test species assessed for mortality. For aphid testing Leaf discs were cut from excised Chinese cabbage leaves and placed on agar in test pots. R2 Myzus persicae were transferred from the culture on radish cotyledons and left overnight. The dried cotyledons were removed, leaving approximately 20-25 aphids on each leaf disc. The pots were sprayed in a Berkhard Potter Tower. Once dry, ventilated lids were placed on the top. These were stored in a Weiss Room at 20° C. for 3 days and the test species assessed for mortality. All tests included a Synperonic NP8 control. […] Any increase in the expected amount of mortality may be attributed to synergism. This is calculated in the following way: Expected mortality from mixture=% mortality of mixture partner A+(100%−% mortality of A)*(% mortality of mixture partner B). The results are set out in Tables I-III.

The test system of a further data set is Spodoptera littoralis. Described as above. The method, then: as §1

In the case of spinosad, the “Observed % mortality Other ai” value is on record as 44% with Heliothis virescens (other ai alone 0.06 ppm); 44% in the data set with Heliothis virescens (other ai alone 0.0625 ppm); 33% with Heliothis virescens (other ai alone 0.13 ppm); 42% in the data set with Heliothis virescens (other ai alone 0.25 ppm); 0% in the data set with Spodoptera littoralis (other ai alone 0.125 ppm); 0% in the data set with Spodoptera littoralis (other ai alone 0.25 ppm). Also, the “Observed % mortality Other ai” value in the data set with Spodoptera littoralis (other ai alone 0.5 ppm) was 29%.

These data come from patent US8852618B2, “Insecticidal mixture containing gamma-cyhalothrin” (Syngenta Limited, priority 2001, dated 2014).
